## Apparent affinities of Ab-95 variants for a coronavirus HR2 peptide

The measurements come from Engelhart et al. 2022 (doi:10.1038/s41597-022-01779-4) through the FLAb antibody collection.

Target peptide (SARS-CoV-2 spike, HR2 region): PDVDLGDISGINAS

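The starting antibody came from a phage panning campaign against this peptide. The library (AAYL52) carries one to three amino acid substitutions per variant, with no insertions or deletions. Affinity was read by AlphaSeq, a pooled yeast mating assay with surface-displayed partners. Pairs that bind mate more often; barcode pairs of the diploids are counted by sequencing. The ratio of observed to expected reads was calibrated, replicate by replicate, on BCL2-family standards whose Kd was known from biolayer interferometry. The assay was run in three technical replicates.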

Each scFv is VH, three GGGGS repeats, VL, as in the parent Ab-95, and differs from it in the CDRs of the light chain only.
VH: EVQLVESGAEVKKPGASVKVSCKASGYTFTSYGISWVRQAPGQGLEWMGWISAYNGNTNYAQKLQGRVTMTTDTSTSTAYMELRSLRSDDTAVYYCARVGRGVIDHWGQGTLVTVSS
VL: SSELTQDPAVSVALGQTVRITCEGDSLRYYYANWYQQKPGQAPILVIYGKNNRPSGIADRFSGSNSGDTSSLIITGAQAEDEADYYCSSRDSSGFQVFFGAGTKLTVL

Positions count from residue 1 of the parent VL; Y31D puts D in place of Y. Every variant below is changed at G94 of the VL (sequential numbering). The Kd shown is the geometric mean over detected replicates; a lower Kd is a better binder. "nd" marks a missing value. The strain was present, yet no cells mated with the target were sequenced in any replicate, which points to weak or no binding. Entries are sorted by rising average, undetected variants last.

Variant Y31D/A32T/G94V gave 33 nM (3 of 3 replicates). Variant G94N/F95T gave 110 nM (3 of 3 replicates). Variant S92G/G94E showed 120 nM (3 of 3 replicates). For Y31P/R90W/G94H, the assay gave 160 nM (3 of 3 replicates). For Y30G/P54T/G94I, the assay gave 220 nM (3 of 3 replicates). For P54T/S89V/G94K, the assay gave 620 nM (3 of 3 replicates). Variant K50R/G94S/V97T gave 700 nM (3 of 3 replicates). Variant Y31G/G94L showed 930 nM (2 of 3 replicates). Variant K50Y/G94Q gave 1.1 µM (1 of 3 replicates).

Variant R90Y/G94M/F95C gave 1.8 µM (3 of 3 replicates). With S89E/S93M/G94V the result was 2.5 µM (1 of 3 replicates). For N33M/R53T/G94S, the assay gave 3.2 µM (1 of 3 replicates). With G24H/S88R/G94N the result was 3.6 µM (3 of 3 replicates). With G24Y/Y29I/G94M the result was 3.9 µM (1 of 3 replicates). Variant S26N/D91P/G94F showed 4.2 µM (3 of 3 replicates). For L27E/S88N/G94I, the assay gave 4.8 µM (2 of 3 replicates). Variant P54N/G94M showed 5.2 µM (3 of 3 replicates). With K50H/S89L/G94S the result was 5.3 µM (3 of 3 replicates).

For D91R/G94V/F98Q, the assay gave 6.3 µM (3 of 3 replicates). Variant A32V/R53W/G94A showed 7.6 µM (2 of 3 replicates). With N51K/G94Y/Q96T the result was 11 µM (2 of 3 replicates). Variant S26T/A32T/G94C gave 14 µM (1 of 3 replicates). Variant A32G/N51E/G94S gave 14 µM (2 of 3 replicates). Variant R53A/S55W/G94D gave 19 µM (2 of 3 replicates). For S26W/R90A/G94N, the assay gave 22 µM (2 of 3 replicates). For G94Y/F95A, the assay gave 23 µM (1 of 3 replicates). With S26I/G94K the result was 31 µM (2 of 3 replicates).

Variant S88P/G94P gave 33 µM (2 of 3 replicates). Variant G94C/F95M gave 33 µM (3 of 3 replicates). Variant K50F/G94L/Q96E showed 37 µM (2 of 3 replicates). Variant L27E/N51I/G94L gave 69 µM (1 of 3 replicates). For E23K/K50R/G94H, the assay gave 150 µM (1 of 3 replicates). For S55T/G94K/F95G, the assay gave 210 µM (1 of 3 replicates). Variant G24K/S55T/G94M showed nd (0 of 3 replicates). For N33Y/D91S/G94N, the assay gave nd (0 of 3 replicates). Variant G49R/S55G/G94K showed nd (0 of 3 replicates).

Variant S26W/G94A/V97S gave nd (0 of 3 replicates). Variant E23A/S93K/G94M gave nd (0 of 3 replicates).

The first 3 variants above that were never detected:

{"changes": "G24K/S55T/G94M", "apparent Kd": "nd", "seen in": "0/3"}
{"changes": "N33Y/D91S/G94N", "apparent Kd": "nd", "seen in": "0/3"}
{"changes": "G49R/S55G/G94K", "apparent Kd": "nd", "seen in": "0/3"}

As a blank, each scFv also met three strains without target: over library AAYL52, 28% of these pairings were detected, typically at 8.2 µM and seldom below 800 nM. In this assay the parent's reference entry averaged 200 nM; its copy inside this library read 180 nM.